According to ChEMBL document CHEMBL3351997, “Synthesis of novel tylophorine derivatives and evaluation of their anti-inflammatory activity” (ACS Med Chem Lett, 2014):

What was measured:
[1] = system: T-cell; assay: Induction of Foxp3 expression in B6 Foxp3-GFP mouse CD4-positive T cells assessed as increase in iTregs at 100 nM after 3 days by flow cytometry
[2] = Antiinflammatory activity against BALB/c mouse splenocytes assessed as inhibition of LPS-induced TNFalpha production after 4 hrs by ELISA; details: splenocyte, strain BALB/c
[3] = system: RAW264.7; assay: Antiinflammatory activity against mouse RAW264.7 cells assessed as inhibition of LPS-induced TNFalpha production after 6 hrs by ELISA
[4] = Antiinflammatory activity against BALB/c mouse splenocytes assessed as inhibition of LPS-induced TNFalpha production after 24 hrs by ELISA; details: splenocyte, strain BALB/c
[5] = system: RAW264.7; assay: Cytotoxicity against mouse RAW264.7 cells after 48 hrs by MTT assay; type: cell-based
How it was run: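 Raw 264.7 murine macrophages were cultured with a range of compound concentrations for 48 h, with vehicle-treated cells as control. The 50% cytotoxic concentration (CC50) was determined, with values representative of three experiments.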

Compound | Activity [1] | also measured
COc1cc2c3c(c4cc(OC)c(OC)cc4c2cc1OC)CN1CCCC1C3.O=[N+]([O-])c1cc([N+](=O)[O-])c(O)c([N+](=O)[O-])c1 (configuration not stated) | 47% | 
COc1cc2c3c(c4cc(OC)c(OC)cc4c2cc1OC)CN1CCCC1C3.O=C(O)CC(O)C(=O)O (configuration not stated) | 4% | 
COc1cc2c3c(c4cc(OC)c(OC)cc4c2cc1OC)CN1CCCC1C3.O=C(O)CCC(=O)O (configuration not stated) | 48% | 
COc1cc2c3c(c4cc(OC)c(OC)cc4c2cc1OC)CN1CCCC1C3.Cl (configuration not stated) | 9% | 
COc1cc2c3c(c4cc(OC)c(OC)cc4c2cc1OC)CN1CCCC1C3.O=C(O)CC(O)(CC(=O)O)C(=O)O (configuration not stated) | 0.1% | 
Br.COc1cc2c3c(c4cc(OC)c(OC)cc4c2cc1OC)CN1CCCC1C3 (configuration not stated) | 40% | 
COc1cc2c3c(c4cc(OC)c(OC)cc4c2cc1OC)CN1CCC[C@@H]1C3 | 4% | IC50 [2]: 208 nM; IC50 [3]: 430 nM; IC50 [4]: 1220 nM; IC50 [5]: 823 nM
COc1cc2c3c(c4cc(OC)c(OC)cc4c2cc1OC)CN1CCC[C@H]1C3 [(S)-TYLOPHORINE] |  | IC50 [2]: 55 nM; IC50 [3]: 78 nM; IC50 [4]: 1130 nM; IC50 [5]: 274 nM
COc1cc2c3c(c4cc(OC)c(OC)cc4c2cc1OC)CN1CCCC1C3.O=C(O)C(O)C(O)C(=O)O (configuration not stated) | 32% | 
CC(O)C(=O)O.COc1cc2c3c(c4cc(OC)c(OC)cc4c2cc1OC)CN1CCCC1C3 (configuration not stated) | 7% | 
